Measurements from patent US20110190218A1 (KARLSRUHE INSTITUTE OF TECHNOLOGY, published 2011).

Legend:
[1] = biological target: T1, Bag-1L (in lysates from Bag-1L-transfected cells) (human, UniProt Q99933 1-345); assay: GST pull-down from lysates of Bag-1L-transfected cells, immunoblot with Bag-1L specific antibody
T1 construct: Untagged Bag-1L as the soluble partner in the test for dimerization; also called human Bag-1L; p50
T1 sequence: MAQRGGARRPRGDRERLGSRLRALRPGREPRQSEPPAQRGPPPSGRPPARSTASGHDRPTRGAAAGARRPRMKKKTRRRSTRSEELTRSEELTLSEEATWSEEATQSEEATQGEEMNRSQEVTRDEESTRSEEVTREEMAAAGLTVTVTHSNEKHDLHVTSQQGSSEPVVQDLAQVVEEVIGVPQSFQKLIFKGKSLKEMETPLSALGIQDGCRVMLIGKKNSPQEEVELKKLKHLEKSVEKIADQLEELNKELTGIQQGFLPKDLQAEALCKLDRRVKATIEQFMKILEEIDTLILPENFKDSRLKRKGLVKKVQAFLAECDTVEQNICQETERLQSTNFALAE

Raf-1 = biological target: T2, Raf-1 (human); assay: GST pull-down (15 µg GST fusion, 400 µg 22Rv.1 lysate), immunoblot
T2 construct: also called c-Raf

Rb = biological target: T3, Rb (human, UniProt P06400 2-928); assay: as above
T3 construct: also called retinoblastoma protein
T3 sequence (looked up): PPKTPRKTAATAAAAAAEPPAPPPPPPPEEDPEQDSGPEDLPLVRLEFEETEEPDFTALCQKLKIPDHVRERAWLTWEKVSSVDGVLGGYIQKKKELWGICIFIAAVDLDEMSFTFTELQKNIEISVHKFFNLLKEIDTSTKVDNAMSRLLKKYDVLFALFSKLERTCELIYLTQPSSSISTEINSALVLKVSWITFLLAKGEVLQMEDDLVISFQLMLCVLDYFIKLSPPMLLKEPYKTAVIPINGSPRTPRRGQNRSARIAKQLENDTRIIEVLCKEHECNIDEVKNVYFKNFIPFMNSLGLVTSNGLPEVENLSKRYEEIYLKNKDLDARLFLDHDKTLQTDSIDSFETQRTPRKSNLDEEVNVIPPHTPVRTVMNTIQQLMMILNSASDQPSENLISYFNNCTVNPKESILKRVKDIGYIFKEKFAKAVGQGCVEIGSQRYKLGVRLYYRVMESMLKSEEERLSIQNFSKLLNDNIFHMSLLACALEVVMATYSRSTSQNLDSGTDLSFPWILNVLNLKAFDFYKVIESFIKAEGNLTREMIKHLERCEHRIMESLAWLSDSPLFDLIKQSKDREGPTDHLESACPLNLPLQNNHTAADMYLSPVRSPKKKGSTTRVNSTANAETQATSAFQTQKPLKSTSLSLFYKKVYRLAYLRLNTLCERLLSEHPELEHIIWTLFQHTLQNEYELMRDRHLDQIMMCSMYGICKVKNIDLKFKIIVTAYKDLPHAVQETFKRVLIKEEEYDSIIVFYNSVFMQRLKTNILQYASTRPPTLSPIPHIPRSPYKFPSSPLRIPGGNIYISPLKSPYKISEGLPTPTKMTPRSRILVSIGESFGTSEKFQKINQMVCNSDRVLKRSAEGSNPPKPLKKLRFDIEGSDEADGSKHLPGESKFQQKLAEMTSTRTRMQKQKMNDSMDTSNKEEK

androgen receptor = biological target: T4, androgen receptor (human, UniProt P10275 1-920, limits assumed); assay: GST pull-down (15 µg GST fusion, 400 µg 22Rv.1 lysate, vehicle or DHT), immunoblot
T4 construct: also called AR; human AR
T4 sequence (looked up): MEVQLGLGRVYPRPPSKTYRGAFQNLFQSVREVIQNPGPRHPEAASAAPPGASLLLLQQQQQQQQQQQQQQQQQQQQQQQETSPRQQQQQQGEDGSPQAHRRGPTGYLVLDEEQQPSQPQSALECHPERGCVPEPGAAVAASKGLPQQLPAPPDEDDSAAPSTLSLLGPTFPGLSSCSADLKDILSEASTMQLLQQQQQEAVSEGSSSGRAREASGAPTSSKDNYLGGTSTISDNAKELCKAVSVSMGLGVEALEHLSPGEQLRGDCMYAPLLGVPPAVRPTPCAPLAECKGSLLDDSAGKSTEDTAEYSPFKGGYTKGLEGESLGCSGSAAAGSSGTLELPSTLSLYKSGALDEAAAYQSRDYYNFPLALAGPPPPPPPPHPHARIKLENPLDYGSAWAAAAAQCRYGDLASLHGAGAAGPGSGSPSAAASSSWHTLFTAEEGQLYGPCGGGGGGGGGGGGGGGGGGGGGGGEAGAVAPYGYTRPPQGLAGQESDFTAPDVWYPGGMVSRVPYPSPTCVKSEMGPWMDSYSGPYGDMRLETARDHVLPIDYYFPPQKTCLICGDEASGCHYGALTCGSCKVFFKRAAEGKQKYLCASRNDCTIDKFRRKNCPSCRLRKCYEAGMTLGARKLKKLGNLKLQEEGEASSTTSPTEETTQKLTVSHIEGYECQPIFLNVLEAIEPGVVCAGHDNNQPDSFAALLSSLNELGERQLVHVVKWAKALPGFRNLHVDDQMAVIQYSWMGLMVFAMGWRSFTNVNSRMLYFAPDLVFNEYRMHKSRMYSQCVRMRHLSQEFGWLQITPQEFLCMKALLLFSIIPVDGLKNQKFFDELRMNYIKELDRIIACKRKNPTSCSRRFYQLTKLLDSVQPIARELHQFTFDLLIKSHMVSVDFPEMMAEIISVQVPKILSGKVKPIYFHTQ

Measured: binding result

B1: GST-Bag-1L-(202-269) (other)
chain: MSPILGYWKIKGLVQPTRLLLEYLEEKYEEHLYERDEGDKWRNKKFELGLEFPNLPYYIDGDVKLTQSMAIIRYIADKHNMLGGCPKERAEISMLEGAVLDIRYGVSRIAYSKDFETLKVDFLSKLPEMLKMFEDRLCHKTYLNGDHVTHPDFMLYDALDVVLYMDPMCLDAFPKLVCFKKRIEAIPQIDKYLKSSKYIAWPLQGWQATFGGGDHPPKTPLSALGIQDGCRVMLIGKKNSPQEEVELKKLKHLEKSVEKIADQLEELNKELTGIQQGFLPKDLQAE
notes: Bacterially purified GST fusion, 15 µg on glutathione beads in the pull-downs
no binding: [1] | Raf-1 | Rb | androgen receptor
